Experimental data from US20140271765A1 (priority 2013, published 2014).

Tests used:
[1] = dogs with 5 implants
[2] = Plasma profile in subjects with 4 implants without rescue medication (Example 4); settings: no supplemental buprenorphine
rat = settings: cited from earlier work
rats = settings: cited from earlier work

In the case of norbuprenorphine, the Norbuprenorphine plasma concentrations [1] is listed as “generally below the limit of quantitation”, the “time until plasma concentration reaches a plateau” value [2] is listed as “about a few days to about two weeks” and the “respiratory-depressant activity, times more potent than buprenorphine” value (rat) is listed as “approximately 10 times”. For the same substance, the “analgesic effect as % of the analgesic effect achieved by buprenorphine” value (rats) was 2%.

Only a part of the results on these compounds is given; other tests are left out.
